Data reported in patent publication US10800816B2 (Baxalta GmbH, priority 2012, dated 2020).
Marks after values point to notes of the source that are not given here.

Legend:
[1] = test system: C57Bl/6NCrl mice; assay: Nail clip bleeding study in mice; format: in vivo, mouse; details: 60 minutes collection
Description: Ten week old C57Bl/6NCrl mice were housed for two weeks prior to the study. […] The animals were anaesthetized with 80 mg/kg pentobarbital ten minutes prior to the nail clip. To achieve bleeding, the nail of the small toe of the right hind paw was removed. The paw was submerged in a 0.9% NaCl solution for blood collection for a period of 60 minutes. Blood loss was quantified after lysis by spectrophotometry. The temperature was kept constant at 37° C. over the course of the experiment.
Animals were anaesthetized 10 minutes before nail clip with 80 mg/kg pentobarbital (i.p.). At time=0 minutes, the nail of the small toe of the right hind paw was cut just before the nail bed. The paw was transferred to a vial prefilled with 0.9% NaCl solution. Samples of blood were collected for analysis during the first 30 minutes following the nail clip and the next 30 minutes thereafter, and mean collected volume for the groups was calculated and compared. Mean blood loss in vehicle treated mice was about 30.5 μl over the first 30 minutes, 52.1 μl over the second 30 minute period, resulting in about 82.6 μl of blood loss over 60 minutes.

[2] = Pharmacokinetics in C57Bl6 mice; format: in vivo, mouse; details: 10 mg/kg i.v., FIG. 31
[3] = Solubility; details: formulated in 25 mm HEPES, pH 7.35, 175 mM NaCl
[4] = Plasma stability in mouse plasma
[5] = Plasma stability in human plasma
[6] = test system: TFPI; assay: FXa inhibition assay (human TFPI); details: read-out: FXa Inhibition IC50; Table 10
[7] = test system: TFPI; assay: % Inhibition @ 2.5µM
[8] = test system: TFPI; assay: % Inhibition @ 0.63µM
[9] = test system: TFPI; assay: FXa Inhibition assay | EC50 (µM)

Row | Substance | blood loss, Mean ([1]; 10 mg/kg i.v.) | blood loss, Mean ([1]; 10 mg/kg s.c.) | plasma concentration after intravenous administration [2] | Solubility (mg/ml) [3] | Plasma Stability (half life in minutes) mouse [4] | Plasma Stability (half life in minutes) human [5] | IC50 [6] | % Inhibition @ […] [7] | % Inhibition @ […] [8] | EC50 [9]
1 | Ac-FQSKGNVFVDGYFERL-Aib-AKLC(PEG(40 kD))-NH2 [JBT1855] | 29.9 µL | 31.7 µL | present at high concentrations in mouse plasma at 100 minutes post-administration | >1.00* mg/ml | >2 h | >2 h | 70 nM |  |  | 
2 | Ac-FQSKGNVFVDGYFERL-Dap-AKL-NH2 (SEQ ID NO: 56) [JBT0697] |  |  |  |  |  |  |  | 73% | 52% | 500 nM
3 | Ac-FQSKGNVFVDGYFERL-Orn-AKL-NH2 (SEQ ID NO: 57) [JBT0699] |  |  |  |  |  |  |  |  | 57% | 410 nM
